The text below walks through data of article PMC7610391, “Photocatalytic proximity labelling of MCL-1 by a BH3 ligand” (Communications chemistry, 2019).

Protein sequences, listed by entry. Tags and fused reporters are not part of them. Residues count along the entry.
UniProt Q07820, 172-327: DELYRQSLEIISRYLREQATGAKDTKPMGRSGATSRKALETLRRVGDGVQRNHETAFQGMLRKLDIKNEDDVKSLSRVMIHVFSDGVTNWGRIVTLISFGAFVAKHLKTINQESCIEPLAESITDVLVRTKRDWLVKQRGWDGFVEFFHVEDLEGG

The structures appear in SMILES notation.

This experiment has as its target MCL-1 (Homo sapiens, UniProt Q07820). The experiment is described as follows: biochemical.

With `CC[C@H](C)[C@H](NC(=O)[C@H](CCCNC(=N)N)NC(=O)[C@H](CCCNC(=N)N)NC(=O)[C@H](CC(C)C)NC(=O)[C@H](CCC(N)=O)NC(=O)[C@H](C)NC(=O)[C@H](C)NC(=O)CCCCCNC(=S)Nc1ccc2c(c1)C(=O)OC21c2ccc(O)cc2Oc2cc(O)ccc21)C(=O)NCC(=O)N[C@@H](CC(=O)O)C(=O)N[C@@H](CCCCN)C(=O)N[C@H](C(=O)N[C@@H](CC(N)=O)C(=O)N[C@@H](CC(C)C)C(=O)N[C@@H](CCCNC(=N)N)C(=O)N[C@@H](CCC(N)=O)C(=O)N[C@@H](CCCCN)C(=O)N[C@@H](CC(C)C)C(=O)N[C@@H](CC(C)C)C(=O)N[C@@H](CC(N)=O)C(N)=O)C(C)C` [FITC-NOXA-B], the Kd came to 11 ± 3 nM.
